In patent US7781406B2, “Production and use of the methotrexate-albumin conjugate as an immunosuppressive agent in GVHD” (Albupharm Heidelberg GmbH & Co. KG, priority 2004, dated 2010):

System: acute GVHD in F1 hybrid BN/Lew rats
Assay: GVHD animal experiment: irradiated rats after transplantation of bone marrow cells and T lymphocytes
Assay type: in vivo
Procedure: Animal experiments: (authorization No. LVL M-V310-4/7221.3-1.2-015/03 Landesveterinäramt Mecklenburg-Vorpommern Rostock)
Initial statistically significant experiments with the long-circulating macromolecular MTX-HSA in GVHD animals were carried out in the department of Prof. Dr. M. Freund in Rostock University clinic under the direction of PD Dr G. Hartung and Dr D. Wolff. These entailed 20 female F1 hybrid BN/Lew rats receiving whole-body irradiation with 7.5 Gy (n=10) or 9 Gy (n=10) and then transplantation of 40 million bone marrow cells and 15 million T lymphocytes from female Lew rats.

MTX-HSA was tested, and the “rats of the group that developed an acute GVHD” value (10 rats per group, 2 mg/kg intraperitoneally on day 0, 4, 8 and 12, whole-body irradiation 7.5 or 9 Gy, transplantation of 40 million bone marrow cells and 15 million T lymphocytes from Lew rats) was “only one rat” and the side effects (GVHD rats, methotrexate-albumin 2 mg/kg i.p. day 0, 4, 8, 12, MTX at equieffective doses) was “No significant side effect”.
